Protein sequences, listed by entry. Tags and fused reporters are not part of them.
UniProt P49238, whole entry: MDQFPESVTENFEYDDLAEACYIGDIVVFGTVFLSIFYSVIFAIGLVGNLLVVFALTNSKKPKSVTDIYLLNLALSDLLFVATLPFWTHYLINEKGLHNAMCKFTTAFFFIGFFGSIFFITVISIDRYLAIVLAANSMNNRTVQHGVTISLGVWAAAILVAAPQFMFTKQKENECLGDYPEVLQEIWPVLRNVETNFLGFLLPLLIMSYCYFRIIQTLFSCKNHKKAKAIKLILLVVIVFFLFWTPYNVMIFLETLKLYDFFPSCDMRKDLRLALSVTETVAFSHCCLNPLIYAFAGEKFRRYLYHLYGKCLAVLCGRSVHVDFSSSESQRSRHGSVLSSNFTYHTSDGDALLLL

According to article PMC11796224, “Merck Open Global Health Library in vitro screening against Schistosoma mansoni identified two new substances with antischistosomal activities for further development” (Parasites & Vectors, 2025):

What was measured:
Kinetic solubility = format: physicochemical; details: PBS pH 7.4, 2 h
Caco-2 cell line = assay: Caco-2 permeability assay; format: in vitro ADME; details: for Caco-2 permeability apical to basolateral / Caco-2 permeability basolateral to apical: 10 µM, 2 h, 37 °C; for Efflux ratio: Caco-2
CX3CR1 = CX3CR1 (Homo sapiens, UniProt P49238); assay: Cellular CX3CR1 assay; format: cell-based; details: read-out: IC50 in cellular CX3CR1 assays
[1] = Intrinsic clearance, mouse; format: in vitro ADME; details: 1 µM, 30 min incubation, tested form: Na salt
[2] = Intrinsic clearance, human; format: in vitro ADME; details: 1 µM, 30 min incubation, tested form: Na salt
PDE-V (guinea pig, lung) = PDE-V (guinea pig, lung) (Cavia porcellus, UniProt H0VD23); assay: PDE-V enzyme assay; format: biochemical; details: read-out: IC50 in enzyme assays using PDE-V, tested form: Na salt

Row | Compound | Kinetic solubility (Kinetic solubility) | Caco-2 permeability apical to basolateral (Caco-2 cell line) | Caco-2 permeability basolateral to apical (Caco-2 cell line) | Efflux ratio (Caco-2 cell line) | IC50 (CX3CR1) | Kinetic solubility (Kinetic solubility; tested form: Na salt) | Caco-2 permeability apical to basolateral (Caco-2 cell line; tested form: Na salt) | Caco-2 permeability basolateral to apical (Caco-2 cell line; tested form: Na salt) | Efflux ratio (Caco-2 cell line; tested form: Na salt) | Intrinsic clearance [1] | Intrinsic clearance [2] | IC50 (PDE-V (guinea pig, lung))
1 | Clc1cccc(OCc2ncc3nccnc3n2)c1Cl | 170 µM | 24.3 ×10⁻⁶ cm/s | 20.9 ×10⁻⁶ cm/s | 0.86 | 135 nM |  |  |  |  |  |  | 
2 | COc1ccc(CNc2nc(-c3ccc(C(=O)O)nc3)nc3sc4c(c23)CCCC4)cc1Cl |  |  |  |  |  | 150 µM | 0.08 ×10⁻⁶ cm/s | 0.22 ×10⁻⁶ cm/s | 2.75 | 42.0 µl/min per mg protein | 20.0 µl/min per mg protein | 1.7 nM
